The values below come from ChEMBL document CHEMBL4359824, “Dual FLT3 inhibitors: Against the drug resistance of acute myeloid leukemia in recent decade” (Eur J Med Chem, 2019).

Chains of the proteins cited; added tags and fusions are not shown.
UniProt P36888, whole entry: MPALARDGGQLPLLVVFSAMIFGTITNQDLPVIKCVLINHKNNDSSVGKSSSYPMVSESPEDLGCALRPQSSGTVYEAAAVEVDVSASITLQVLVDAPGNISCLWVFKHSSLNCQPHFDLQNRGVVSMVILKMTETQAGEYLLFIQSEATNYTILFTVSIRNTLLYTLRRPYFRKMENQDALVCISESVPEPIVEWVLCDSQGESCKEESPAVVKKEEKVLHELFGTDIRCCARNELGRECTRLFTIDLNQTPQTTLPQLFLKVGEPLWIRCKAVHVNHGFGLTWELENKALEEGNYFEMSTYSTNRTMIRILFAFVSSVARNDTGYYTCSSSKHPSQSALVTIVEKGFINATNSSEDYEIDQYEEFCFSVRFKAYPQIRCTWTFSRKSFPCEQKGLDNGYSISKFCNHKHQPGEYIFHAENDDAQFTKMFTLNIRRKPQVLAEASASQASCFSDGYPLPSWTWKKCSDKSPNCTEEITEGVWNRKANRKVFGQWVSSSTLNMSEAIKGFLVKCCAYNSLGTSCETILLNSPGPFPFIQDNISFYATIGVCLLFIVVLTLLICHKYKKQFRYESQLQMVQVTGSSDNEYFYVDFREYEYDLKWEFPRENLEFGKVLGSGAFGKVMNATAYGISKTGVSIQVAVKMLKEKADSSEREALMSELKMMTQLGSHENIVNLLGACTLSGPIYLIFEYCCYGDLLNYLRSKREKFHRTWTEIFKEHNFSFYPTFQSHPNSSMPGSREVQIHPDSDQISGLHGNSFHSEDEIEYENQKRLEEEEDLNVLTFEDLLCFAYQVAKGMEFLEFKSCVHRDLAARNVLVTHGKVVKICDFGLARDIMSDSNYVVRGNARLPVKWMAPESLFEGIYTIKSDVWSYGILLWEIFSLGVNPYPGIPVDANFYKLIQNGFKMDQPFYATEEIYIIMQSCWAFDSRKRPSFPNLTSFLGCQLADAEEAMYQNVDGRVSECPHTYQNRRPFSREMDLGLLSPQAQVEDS

The IC50 is the point on the concentration scale where inhibition reaches its midpoint. A lower IC50 goes with greater potency in that assay.

The target of this assay is Receptor-type tyrosine-protein kinase FLT3 (Homo sapiens, UniProt P36888).

With `C1=C/COCc2cc(ccc2OCCN2CCCC2)Nc2nccc(n2)-c2cccc(c2)COC/1` [PACRITINIB], the IC50 stood at 23 nM.
